Experiment [1] is described as follows: Selectivity for rat recombinant FAAH over TGH.
Experiment [2] can be described thus: Selectivity for rat recombinant FAAH over KIAA1363.

This note sets out measurements from ChEMBL document CHEMBL1142267, “Optimization of alpha-ketooxazole inhibitors of fatty acid amide hydrolase” (J Med Chem, 2008).

On to `O=C(CCc1ccc(Oc2ccccc2)cc1)c1ncc(-c2ccccn2)o1`, for which the values for the Ratio IC50 in experiment [1] and in experiment [2] were 100 and > 50000, respectively.
